Each structure is given as a SMILES string. This is a selection; strong and weak results do not stand in their true shares. The source made the active and inactive calls. Cut-off read from the data, not from the text of the source: active = activation above about 7.8%; inactive = the rest.

The experiment in a line: SMARCA2 (BRM) function activators, primary screen, cell-based, luminescence, high throughput (AID 652017).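 Note: 0% = vehicle wells and 100% = reference activator wells.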 Conditions: MG213 cells, MMTV-luciferase reporter, dexamethasone, overnight; at 9.1 µM; stronger effect = higher value. In general terms: In a reporter assay the amount or activity of a reporter protein is the signal.
In the case of `CCC(=O)N(c1ccccc1)C1(COC)CCN(CCc2cccs2)CC1`, the activation is inactive: 0.63%.
The result for `CCC(=O)N(c1ccccc1)C1(COC)CCN(CCn2nnn(CC)c2=O)CC1` reads inactive: -6.55%.

The values are drawn from PubChem BioAssay AID652017 (The Scripps Research Institute Molecular Screening Center, 2013).
